{"source": "paper PMC7674511", "biological_target": "BAG6 LIR1 peptide (residues 124-143) (UniProt P46379)", "experiment": "fluorescence polarisation; fluorescence anisotropy; peptide at 1 μM, LC3B-I or Pro-LC3B added from 0 to 50 μM; Kd by nonlinear curve fitting; three independent experiments", "data": [{"substance": "Pro-LC3B (from UniProt Q9GZQ8 1-120) (natural protein)", "values": [{"measurement": "Kd", "value": 17.7, "unit": "µM"}]}]}
